This passage reports Ki results from ChEMBL document CHEMBL4000248, “Synthesis and biological evaluation of cyclic imides incorporating benzenesulfonamide moieties as carbonic anhydrase I, II, IV and IX inhibitors” (Bioorg Med Chem, 2017).

The structures appear in SMILES notation.

For the experiment, the target named is Carbonic anhydrase 9 (Homo sapiens, UniProt Q16790). Put plainly: Inhibition of recombinant human carbonic anhydrase 9 incubated for 10 mins prior to testing by stopped flow CO2 hydrase assay.

Regarding `NS(=O)(=O)c1ccc(CCN2C(=O)c3c(Cl)c(Cl)c(Cl)c(Cl)c3C2=O)cc1`, the Ki was found to be 284 nM.

In general, Ki refers to the dissociation constant of the complex between target and ligand, obtained from inhibition or displacement.
